From EP4810521A1, “ANTI-EGFR AND -HER3 BISPECIFIC ANTIBODY-DRUG CONJUGATE AND USE THEREOF” (priority 2023, dated 2025)

Columns and labels:
[1] = test system: SW620 tumor-bearing mouse model; assay: Anti-tumor effect in SW620 tumor-bearing mouse model; format: in vivo, BALB/c-NUDE mice; details: SW620, 10 mg/kg QWx3 intraperitoneal injection, day 42
Source text: In the present experiment, the BALB/c NUDE mice inoculated with SW620 cells were used for determining the anti-tumor effect of the EGFR/HER3-ADCs.
(§1) The female BALB/c-NUDE mice were purchased from Beijing Vital River Laboratory Animal Technology Co., Ltd, with the grade of SPF, the quality control department is Beijing Vital River Laboratory Animal Technology Co., Ltd, and the certificate number was 20230614Abzz0619000190. The mice were domesticated for 3 days after arrival, and then the study began.
SW620 cells were obtained Nanjing Cobioer Biotechnology Co., Ltd. The cells were collected by centrifugation, resuspended in sterile PBS and adjusted to a cell density of 10×10^6 cells/ml. […]
(§2) Tumor volume of each mouse was measured 14 days after tumor cell inoculation, the mice with tumor volumes about 200 mm^3 were selected and grouped on average according to their tumor volume (7 mice per group). […] Administrations were conducted on day 14, 21 and 28 after inoculation respectively, and tumor volume and body weight of mice were monitored twice a week. […] Measurement of tumor volume: the maximum long axis (L) and maximum wide axis (W) of the tumor were measured using a vernier caliper, and the tumor volume was calculated as follows: V=L×W^2/2. Body weight was measured using an electronic balance. […]

[2] = test system: NUGC-4 tumor-bearing mouse model; assay: Anti-tumor effect in NUGC-4 tumor-bearing mouse model; format: in vivo, BALB/c-NUDE mice; details: NUGC-4, 10 mg/kg single dose intraperitoneal injection, day 32
Source text: In the present experiment, the BALB/c NUDE mice inoculated with NUGC-4 cells were used for determining the anti-tumor effect of the EGFR/HER3-ADCs.
as §1, with “NO.110011230103807533.” for “20230614Abzz0619000190.”
NUGC-4 cells were purchased from NIBIOHN (CAT #: JCRB0834) and routinely subcultured in strict accordance with the instructions for subsequent in vivo experiments. […]
Tumor volume of each mouse was measured 13 days after tumor cell inoculation, the mice with tumor volumes about 200 mm^3 were selected and grouped on average according to their tumor volume (7 mice per group). […] Administrations were conducted on day 13 after inoculation respectively, and the tumor volume and body weight of mice were monitored twice a week. Body weight and tumor volume were measured before each dose, and the relative tumor growth inhibition (TGI%) was calculated on day 32 after inoculation, the calculating formula was as follows: TGI% =100% * (tumor volume of control group - tumor volume of treatment group)/ (tumor volume of control group - tumor volume of control group before administration). […]

human EGFR = human EGFR (Homo sapiens, UniProt P00533); assay: ELISA detection of affinity; format: binding; details: EGFR antigen coated 0.25 µg/mL
Description: (§3) A 96-well enzyme label plate was coated one day in advance, EGFR or HER3 antigen was diluted to 0.25 µg/mL by using coating solution, then 100 µL of which was added into each well, the plate was sealed by a plate film, and placed at 4 °C overnight; the pre-coating solution in the 96-well enzyme label plate was poured out, patted dry on absorbent paper, 230 µL of washing solution was added into each well, and washed for 3 times repeatedly after patting dry the washing solution; 200 µL of blocking solution was added into each well by the multichannel pipette gun, the plate was sealed by a microplate sealer, blocked at 37 °C for 2h, then the plate was washed; the sample to be detected was diluted at the maximum concentration of 100 nM and a ratio of 1:4 into 12 wells, and then 100 µL of dilutions was added into each well, incubated at room temperature for 2 hours in the dark, the plate was washed, 100µL of Goat anti-Human IgG Fc-HRP diluting at 1:80000 was added into each well, incubated at room temperature for 1 hour in the dark, and the plate was washed; 100 µL of TMB substrate was added into a 96-well enzyme label plate, developed for 2-5 minutes at room temperature in a dark, then 50 µL of ELISA stop solution was added into each well, and the values of OD450nm and OD620nm were read within 30 minutes.

human HER3 = human HER3 (Homo sapiens, UniProt P21860); assay: ELISA detection of affinity; format: binding
Description: as §3

[3] = test system: human breast cancer cells MCF7; assay: In vitro cell killing assay (CTG); format: cell-based; details: MCF7, 5 days
Description: After 2-3 passages of the resurrected MCF7 cells, the culture medium was poured out firstly, rinsed with 10 mL PBS once, then the cells were digested with 4mL trypsin, the culture medium was terminated before centrifuged at 400xg for 3min, the supernatant was discarded, and the culture medium was further resuspended for counting. The cell density was adjusted to 3E4/mL, 50 µL of which per well was added into a round bottom low adsorption 96-well plate. The antibody to be detected was diluted in a gradient manner, then 50 µL of which per well was added into the corresponding cells, cultured at 37 °C for 5 days, then the 96-well plate was taken out, the plate was balanced to room temperature, 100 µL of CTG detection solution was added into each well, placed at a shaker at 300 rpm for 20 min, 100 µL of which was absorbed and placed into the white bottom 96-well plate, and the luminescence value was detected by using a multifunctional microplate reader.

[4] = test system: human breast cancer cells MDA-MB-453; assay: In vitro cell killing assay (CTG); format: cell-based; details: MDA-MB-453, 5 days, Example 14
[5] = test system: ASPC1 tumor-bearing mouse model; assay: Anti-tumor effect in ASPC1 tumor-bearing mouse model; format: in vivo, BALB/c-NUDE mice; details: ASPC1, 10 mg/kg QWx3 intraperitoneal injection, day 28
Source text: In the present experiment, the BALB/c NUDE mice inoculated with ASPC1 cells were used for determining the anti-tumor effect of the EGFR/HER3-ADCs.
The female BALB/c-NUDE mice were purchased from Beijing Vital River Laboratory Animal Technology Co., Ltd, with the grade of SPF, the quality control department is Beijing Vital River Laboratory Animal Technology Co., Ltd, and the certificate number was 20230531Abzz0619000787. The mice purchased from Vital River laboratory mice were domesticated for 3 days after arrival, and then the study began. […]
Tumor volume of each mouse was measured 7 days after tumor cell inoculation, the mice with tumor volumes about 200 mm^3 were selected and grouped on average according to their tumor volume (7 mice per group). […] Administrations were conducted on day 7, 14 and 21 after inoculation respectively, and the tumor volume and body weight of mice were monitored twice a week. Body weight and tumor volume were measured before each dose, and the relative tumor growth inhibition (TGI%) was calculated on day 28 after inoculation, the calculating formula was as follows: TGI% =100% * (tumor volume of control group - tumor volume of treatment group)/ (tumor volume of control group - tumor volume of control group before administration). […] Body weight was measured using an electronic balance. […]

[6] = test system: H508 tumor-bearing mouse model; assay: Anti-tumor effect in H508 tumor-bearing mouse model; format: in vivo, BALB/c NUDE mice; details: H508, 10 mg/kg QWx2 intraperitoneal injection, day 55
Source text: In the present experiment, the BALB/c NUDE mice inoculated with H508 cells were used for determining the anti-tumor effect of the EGFR/HER3-ADCs.
as §1, with “BALB/c NUDE background” for “BALB/c-NUDE”, “NO. 110011230103807467.” for “20230614Abzz0619000190.”
H508 cells were purchased from Nanjing Cobioer (CAT#: CBP60795) and routinely subcultured in strict accordance with the instructions for subsequent in vivo experiments. […]
Tumor volume of each mouse was measured 37 days after tumor cell inoculation, the mice with tumor volumes between about 120-140 mm^3 were selected and grouped on average according to their tumor volume (6 mice per group). […] Administrations were conducted on day 37 and day 44 after inoculation respectively, and the tumor volume and body weight of mice were monitored twice a week. […] Measurement of tumor volume: the maximum long axis (L) and maximum wide axis (W) of the tumor were measured using a vernier caliper, and the tumor volume was calculated as follows: V=L×W^2/2. Body weight was measured using an electronic balance. […]

[7] = test system: NCI-H1568 tumor-bearing mouse model; assay: Anti-tumor effect in NCI-H1568 tumor-bearing mouse model; format: in vivo, BALB/c-NUDE mice; details: NCI-H1568, 10 mg/kg QWx3 intraperitoneal injection, day 30
Source text: In the present experiment, the BALB/c NUDE mice inoculated with NCI-H1568 cells were used for determining the anti-tumor effect of the EGFR/HER3-ADCs.
as §1, with “NO. 110011230103807467.” for “20230614Abzz0619000190.”
NCI-H1568 cells were purchased from Nanjing Cobioer Biotechnology Co., Ltd. and routinely subcultured in strict accordance with the instructions for subsequent in vivo experiments. […]
as §2, with “11” for “14”, “11, 18” for “14, 21”, “27” for “28”

SIB001-DXd [reference compound]
TGI [1]: 39% | Tumor volume [1]: 1235 mm^3 | TGI [2]: 70% | Tumor volume [2]: 457 mm^3 | Kd (human EGFR): 0.0883 nM | binding to HER3 (human HER3): weak binding to HER3 | IC50 [3]: 13.2 nM | IC50 [4]: 9.36 nM | TGI [5]: 67% | Tumor volume [5]: 347 mm^3 | TGI [6]: 155% | Tumor volume [6]: 30 mm^3 | TGI [7]: 61% | Tumor volume [7]: 480 mm^3
